The source of these data is US12458674B2, “M13 phage based gene therapy platform” (Massachusetts Institute of Technology, priority 2021, dated 2025).

SMILES strings stand for the structures. Like-named read-outs stand apart in the source and are kept apart here.

Series [1] is described as follows: in vivo. As to conditions: NCR-NU, mouse.
The conditions of series [2]: as reported; cited from earlier work.

On to `CC1(C)C(/C=C/C=C/C=C/C=C2\N(CCCCS(=O)(=O)O)c3ccc4ccccc4c3C2(C)C)=[N+](CCCCS(=O)(=O)[O-])c2ccc3ccccc3c21` [free, indocyanine green], for which, in series [1], the half-life – broadly, the time needed for the level to fall by half in the phase considered – turned out to be 4.83 min. The “half-life of free ICG dye” value in series [2] is 3 to 4 min. Moreover, the t1 (exponential decay fit y = A1*exp(−x/t1) + y0 of normalized vasculature signal intensity over time, one fit per mouse, value ± error, no unit in table (text b239: minutes)) is 6.97 ± 0.54 and the t1 (second t1 column of Table A2-1, same constant without error) is listed as 6.97.
